Yeast mating assay B: variants of the scFv Ab-14

Values reported by Li et al. 2023, doi:10.1038/s41467-023-39022-2 (FLAb copy).

Antigen: PDVDLGDISGINAS, a 14-residue peptide of the SARS-CoV-2 spike HR2 region.

Each scFv is VH, a (GGGGS)3 linker, VL, as in the parent Ab-14, and differs from it in the CDRs of the light chain only.
VH: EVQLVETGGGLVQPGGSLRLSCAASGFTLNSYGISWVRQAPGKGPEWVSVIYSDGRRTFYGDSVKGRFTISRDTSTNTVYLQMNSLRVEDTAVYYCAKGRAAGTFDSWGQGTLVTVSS
VL: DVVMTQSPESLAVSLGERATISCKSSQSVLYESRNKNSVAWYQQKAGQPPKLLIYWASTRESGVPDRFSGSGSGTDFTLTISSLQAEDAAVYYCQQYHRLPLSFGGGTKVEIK

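The parent was found by panning a naive human phage display library on the peptide. This is the validation round: designs drawn from the data on random variants, tested in the same kind of assay. Their group label is 14L_GP_HC (GP: Gaussian process model; HC: hill climbing; a sequence that several methods proposed may carry one label only). Affinity was read by AlphaSeq, a pooled yeast mating assay with surface-displayed partners. Mating (16 h, 30 °C) was followed by selection of diploids and sequencing of their barcodes. The ratio of observed to expected reads was calibrated, replicate by replicate, on BCL2-family standards whose Kd was known from biolayer interferometry. There are six technical replicates.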

Substitutions are numbered in sequence along the VL above, starting at 1 (not Kabat). The read-out is the apparent dissociation constant on a log10 scale (nM): the lower, the stronger. The authors' rule: three or more of the six replicates give a measured affinity, fewer mean a poor binder.

{"changes": "S25F Q27P L30Y N35T W56D", "replicates, log10 nM": "0.56 0.47 0.35 0.19 0.65 0.45", "control signals": "0/18"}
{"changes": "S25V Q27I V29Y Y31L W56E S58E", "replicates, log10 nM": "0.66 -0.19 -0.14 0.17 -0.25 0.74", "control signals": "0/18"}
{"changes": "S25A V29W W56G T59L", "replicates, log10 nM": "-0.27 -0.57 -0.54 -0.66 -0.59 -0.40", "control signals": "1/18 (2.07)"}
{"changes": "S26D S28G W56G T59Q E61W", "replicates, log10 nM": "0.08 0.15 0.30 0.13 0.04 0.38", "control signals": "3/18 (3.14)"}
{"changes": "S25V S26E S28G W56D", "replicates, log10 nM": "0.30 0.20 -0.03 0.00 -0.04 0.07", "control signals": "0/18"}
{"changes": "S25Q S28E V29Q W56D", "replicates, log10 nM": "0.56 0.65 0.88 0.66 0.43 0.69", "control signals": "1/18 (2.06)"}
{"changes": "Q27G L30K Y31F W56D", "replicates, log10 nM": "0.77 0.09 0.31 0.20 0.25 0.51", "control signals": "0/18"}
{"changes": "L30A Y31M R34S K36A W56D", "replicates, log10 nM": "0.24 0.00 -0.29 0.03 0.17 0.57", "control signals": "0/18"}
{"changes": "K24H Q27P S38N W56N S62D", "replicates, log10 nM": "-0.36 -0.31 -0.45 -0.49 -0.24 -0.16", "control signals": "1/18 (2.68)"}
{"changes": "Q27I V29Y Y31G S33L W56E", "replicates, log10 nM": "-0.12 0.54 0.72 0.49 -0.03 0.48", "control signals": "0/18"}
{"changes": "S26Q L30E S38N W56H S62D H98A", "replicates, log10 nM": "0.55 0.16 -0.10 0.70 -0.19 1.48", "control signals": "0/18"}
{"changes": "S25L S26R V29T E61C", "replicates, log10 nM": "0.74 0.73 0.17 0.52 0.41 0.50", "control signals": "1/18 (2.95)"}
{"changes": "S28M L30E Y31F W56D", "replicates, log10 nM": "0.25 -0.14 0.04 -0.30 -0.23 -0.04", "control signals": "0/18"}
{"changes": "K24I S25Q Y31M W56D", "replicates, log10 nM": "0.30 0.10 0.31 0.39 0.18 0.34", "control signals": "0/18"}
{"changes": "S25L V29W W56Q A57G", "replicates, log10 nM": "-0.10 -0.23 -0.33 -0.45 -0.32 -0.15", "control signals": "1/18 (2.55)"}
{"changes": "S26L V29G W56H S62D H98G", "replicates, log10 nM": "1.29 0.91 -0.07 0.47 1.47 0.72", "control signals": "0/18"}
{"changes": "S25F W56D S58N", "replicates, log10 nM": "-0.20 -0.38 -0.82 -0.77 -0.70 -0.24", "control signals": "1/18 (1.26)"}
{"changes": "S26Q W56H E61M S62D", "replicates, log10 nM": "0.53 0.55 0.46 0.35 0.47 0.76", "control signals": "5/18 (3.31)"}
{"changes": "V29Y W56A", "replicates, log10 nM": "0.76 1.06 0.54 0.05 0.58 0.74", "control signals": "1/18 (2.19)"}
{"changes": "S26L N35D W56G S62D", "replicates, log10 nM": "0.03 0.39 -0.07 -0.25 0.03 0.01", "control signals": "1/18 (3.44)"}
{"changes": "K24H S25Q Q27G W56N A57G S62E", "replicates, log10 nM": "0.13 0.03 -0.03 -0.05 0.10 0.35", "control signals": "2/18 (3.21)"}
{"changes": "K24H S25L Q27D W56N S103Y", "replicates, log10 nM": "0.08 -0.15 -0.20 -0.27 -0.16 -0.06", "control signals": "2/18 (2.23)"}
{"changes": "Q27I V29Y R34P W56E T59Q", "replicates, log10 nM": "1.44 1.54 1.26 0.82 0.45 1.01", "control signals": "1/18 (2.60)"}
{"changes": "Q27C V29G W56E", "replicates, log10 nM": "0.10 0.84 0.89 0.49 0.36 1.81", "control signals": "0/18"}

Excerpt, the final 2 entries:

changes	replicates, log10 nM	control signals
Q27I V29Y R34P W56E T59Q	1.44 1.54 1.26 0.82 0.45 1.01	1/18 (2.60)
Q27C V29G W56E	0.10 0.84 0.89 0.49 0.36 1.81	0/18

As a blank, each scFv also met three strains without target: over all light chain designs, 4% of these pairings were detected, typically at 2.64 and seldom below 1.59. Also given: how often the same scFv was detected with the empty control strains, with their mean in brackets. The range of this assay differs from that of the first round, and the authors advise against merging the two. Of ten entries with the parent sequence, four were seen in most replicates (averages 0.34 to 2.37), three in one and three in none, so single entries are noisy.